# Measured values published in patent publication US20250339549A1, “METHODS FOR THE DETECTION AND TREATMENT OF NON-SMALL-CELL LUNG CANCER” (Board of Regents, The University of Texas System, priority 2022, published 2025).
# Assays:
# HCC827 and PC9 cells [1] = experiment: Flow cytometry-based cell cycle analysis; parameters: species or system human; conditions: 30 nM
# HCC827 and PC9 cells [2] = conditions: 100 nM
# ALPP = ALPP expression in cancer cell lines after drug treatment (immunoblot, immunofluorescence, flow cytometry, qPCR, surface proteomics); assay type: cell-based, human; conditions: EGFR TKI treatment (FIG. 7D, FIG. 15B: 30 nM, 48 hours)
# From the text: ALPP and ALPPL2 expression analysis in whole cell extracts and in the surfaceome compartment was done by mass spectrometry as previously described^19-23. Each dataset was normalized to the total number of spectral counts for each compartment^24.
# Images were acquired in z-series on a spinning-disk confocal system.
# Probe for ALPP was purchased from Thermo Fisher Scientific (Hs03046558_s1).
compound,measurement,setting,value
COc1cc2ncnc(Nc3ccc(F)c(Cl)c3)c2cc1OCCCN1CCOCC1 [gefitinib],cell cycle arrest in G0/G1,HCC827 and PC9 cells [1],statistically significantly increased cell cycle arrest in G0/G1
same,emergence of drug-resistant clones under continuous TKI treatment,HCC827 and PC9 cells [2],led to the emergence of drug-resistant clones
same,fold increase in ALPP expression,ALPP; HCC827 cells,~60 fold
same,fold increase in ALPP expression,ALPP; PC9 cells,~110 fold
